Antibody variant affinities, Ab-95 light chain, assay 2

Source: Engelhart et al. 2022 (doi:10.1038/s41597-022-01779-4), MIT Lincoln Laboratory and A-Alpha Bio; data file from the FLAb repository.

Target peptide (SARS-CoV-2 spike, HR2 region): PDVDLGDISGINAS

Parent scFv Ab-95: VH joined to VL by the linker GGGGSGGGGSGGGGS. Changes lie in the light chain CDRs alone.
VH: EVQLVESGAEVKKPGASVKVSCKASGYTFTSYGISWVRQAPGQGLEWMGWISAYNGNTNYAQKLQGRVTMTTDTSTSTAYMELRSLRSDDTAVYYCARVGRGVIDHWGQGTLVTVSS
VL: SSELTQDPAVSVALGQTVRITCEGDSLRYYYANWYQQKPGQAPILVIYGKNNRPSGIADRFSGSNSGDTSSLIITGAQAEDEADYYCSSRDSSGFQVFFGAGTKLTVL

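The starting antibody came from a phage panning campaign against this peptide. AAYL52 was designed without a model: most single CDR substitutions and a random sample of double and triple ones. AlphaSeq pools MATa yeast showing the antibodies with MATalpha yeast showing the peptide. After mating in shaken culture at 30 °C for 16 h, diploids were selected and their barcode pairs sequenced. Scores were corrected for input abundance and mapped to Kd with protein pairs of known affinity run in the same pool. The assay was run in three technical replicates.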

Positions count from residue 1 of the parent VL; S92Y puts Y in place of S. The read-out is the apparent dissociation constant on a log10 scale (nM): the lower, the stronger. Averages over replicates are reported, and they cover detected replicates only. "no signal" means that the variant was in the library but no mating with the target was seen in any replicate; the authors take this as a sign of poor binding, and no number exists.

{"changes": "S92Y G94P F98V", "mean log10 Kd (nM)": "no signal", "detected": "0/3", "control signals": "0/9"}
{"changes": "D25M V97G", "mean log10 Kd (nM)": "2.85", "detected": "1/3", "control signals": "0/9"}
{"changes": "D91W S92F S93R", "mean log10 Kd (nM)": "2.58", "detected": "3/3", "control signals": "1/9"}
{"changes": "G49A N51L", "mean log10 Kd (nM)": "4.37", "detected": "1/3", "control signals": "2/9"}
{"changes": "S55V S88N S92E", "mean log10 Kd (nM)": "2.75", "detected": "3/3", "control signals": "3/9"}
{"changes": "G24W S26C G94S", "mean log10 Kd (nM)": "3.96", "detected": "1/3", "control signals": "4/9"}
{"changes": "N52V D91Y G94A", "mean log10 Kd (nM)": "3.64", "detected": "1/3", "control signals": "1/9"}
{"changes": "N33R R53Y V97W", "mean log10 Kd (nM)": "no signal", "detected": "0/3", "control signals": "2/9"}
{"changes": "E23S S92G V97P", "mean log10 Kd (nM)": "2.07", "detected": "3/3", "control signals": "4/9"}
{"changes": "R28T Y30N K50T", "mean log10 Kd (nM)": "0.88", "detected": "3/3", "control signals": "7/9"}
{"changes": "D25R Y30K S92Q", "mean log10 Kd (nM)": "1.61", "detected": "3/3", "control signals": "7/9"}
{"changes": "S26I A32R N52A", "mean log10 Kd (nM)": "3.44", "detected": "1/3", "control signals": "0/9"}
{"changes": "R28E S92A F98N", "mean log10 Kd (nM)": "4.04", "detected": "1/3", "control signals": "0/9"}
{"changes": "Y29F N51L Q96H", "mean log10 Kd (nM)": "3.80", "detected": "2/3", "control signals": "5/9"}
{"changes": "S26F N52W D91R", "mean log10 Kd (nM)": "no signal", "detected": "0/3", "control signals": "1/9"}
{"changes": "Y31Q D91W S93F", "mean log10 Kd (nM)": "1.64", "detected": "3/3", "control signals": "3/9"}
{"changes": "L27P K50V P54Q", "mean log10 Kd (nM)": "5.39", "detected": "1/3", "control signals": "5/9"}
{"changes": "R53K S88H G94C", "mean log10 Kd (nM)": "3.78", "detected": "2/3", "control signals": "0/9"}
{"changes": "Y29Q A32D R53Y", "mean log10 Kd (nM)": "4.72", "detected": "1/3", "control signals": "3/9"}
{"changes": "G94Y F95Y F98H", "mean log10 Kd (nM)": "3.26", "detected": "3/3", "control signals": "1/9"}
{"changes": "S88D F95H Q96G", "mean log10 Kd (nM)": "4.14", "detected": "2/3", "control signals": "2/9"}
{"changes": "G49M S55T G94S", "mean log10 Kd (nM)": "no signal", "detected": "0/3", "control signals": "1/9"}
{"changes": "N33Y N51L S93V", "mean log10 Kd (nM)": "3.83", "detected": "1/3", "control signals": "3/9"}
{"changes": "S55L Q96T", "mean log10 Kd (nM)": "2.24", "detected": "3/3", "control signals": "2/9"}
{"changes": "Y30V R53P S88T", "mean log10 Kd (nM)": "4.16", "detected": "1/3", "control signals": "1/9"}
{"changes": "Y31L N33T Q96M", "mean log10 Kd (nM)": "no signal", "detected": "0/3", "control signals": "1/9"}
{"changes": "D25N Y29R F98C", "mean log10 Kd (nM)": "2.96", "detected": "2/3", "control signals": "1/9"}
{"changes": "R53L S88G S92P", "mean log10 Kd (nM)": "3.87", "detected": "3/3", "control signals": "4/9"}
{"changes": "D25C R90E F98D", "mean log10 Kd (nM)": "no signal", "detected": "0/3", "control signals": "0/9"}
{"changes": "P54Y Q96V", "mean log10 Kd (nM)": "4.12", "detected": "3/3", "control signals": "3/9"}
{"changes": "G24F N51C F95D", "mean log10 Kd (nM)": "4.38", "detected": "2/3", "control signals": "2/9"}
{"changes": "G24L Y31R S93K", "mean log10 Kd (nM)": "4.87", "detected": "1/3", "control signals": "4/9"}

Excerpt, the final 4 entries:

changes	mean log10 Kd (nM)	detected	control signals
D25C R90E F98D	no signal	0/3	0/9
P54Y Q96V	4.12	3/3	3/9
G24F N51C F95D	4.38	2/3	2/9
G24L Y31R S93K	4.87	1/3	4/9

Empty control strains, which show no peptide, gave a signal in 28% of pairings with library AAYL52; the median was 3.91 and 95% of these signals were weaker than 2.90. No background was subtracted. The control count says in how many pairings with the empty strains this scFv gave a signal. For reference, the parent read 2.31 as the reference entry and 2.25 as a member of this library.